Source: patent US20080182822A1, “Liquid Pharmaceutical Compositions Comprising a Bisphosphonate Compound” (Besins Healthcare SA, priority 2006, published 2008)
“And” between values parts separate entries of the source, which are not always exact repeats. Equal entries are not always repeated. Where two headings read alike, the source gives them in different places.

Conditions: rat, dermal (Group 2)

For `NCCCC(O)(P(=O)(O)O)P(=O)(O)O` [14C-alendronate], which “Recovery from Treated Skin, Amount in Skin Sample” value (from here on “Recovery from Treated Skin, Amount”) (necropsy Day 4, Mean) is on record?
Its value is 6.55 µg.

And the “Recovery from Treated Skin, Amount” value (necropsy Day 4, individual animals)?
The value was 6.17 µg and 5.49 µg and 6.68 µg and 8.21 µg and 6.19 µg.

And the “Recovery from Treated Skin, Amount” value (necropsy Day 8, individual animals)?
The value was 4.70 µg and 4.12 µg and 6.13 µg and 7.32 µg and 4.04 µg.
